# In patent publication US6060451A, “Thrombin inhibitors based on the amino acid sequence of hirudin” (The National Research Council of Canada, priority 1995, dated 2000):
# Molecular target: human α-thrombin (Homo sapiens, UniProt P00734)
# Assay: Fluorogenic amidolytic assay of thrombin activity, hydrolysis of Tosyl-Gly-Pro-Arg-AMC (Table I)
Structure (SMILES),Mode of inhibition (fluorogenic assay),"Ki (read-out: Human Ki, human α-thrombin mediated hydrolysis of Tosyl-Gly-Pro-Arg-AMC, mean of three determinations ± SEM, ni = not inhibited) [nM]"
"CC[C@H](C)[C@H](NC(=O)[C@H](CCC(=O)O)NC(=O)[C@H](CCC(=O)O)NC(=O)[C@H](Cc1ccccc1)NC(=O)[C@H](CC(=O)O)NC(=O)CNC(=O)[C@H](CC(=O)O)NC(=O)[C@H](CC(N)=O)NC(=O)[C@H](Cc1c[nH]cn1)NC(=O)[C@H](CO)NC(=O)[C@H](CCC(N)=O)NC(=O)[C@@H]1CCCN1C(=O)[C@H](CCCNC(=N)N)NC(=O)[C@@H]1CCCN1C(=O)[C@@H](Cc1ccccc1)NC(C)=O)C(=O)N1CCC[C@H]1C(=O)N[C@@H](CCC(=O)O)C(=O)N[C@@H](CCC(=O)O)C(=O)N[C@@H](Cc1ccc(O)cc1)C(=O)N[C@@H](CC(C)C)C(=O)N[C@@H](CCC(N)=O)C(=O)O [P53, [D-Phe^45, Arg^47]hirudin^45-65]",pure competitive inhibitor,
"CC[C@H](C)[C@H](NC(=O)[C@H](CCC(=O)O)NC(=O)[C@H](CCC(=O)O)NC(=O)[C@H](Cc1ccccc1)NC(=O)[C@H](CC(=O)O)NC(=O)CNC(=O)[C@H](CC(=O)O)NC(=O)[C@H](CC(N)=O)NC(=O)[C@H](Cc1c[nH]cn1)NC(=O)[C@H](CO)NC(=O)[C@H](CCC(N)=O)NC(=O)[C@H]1CCCN1C(=O)[C@H](CCCNC(=N)N)NC(=O)[C@@H]1CCCN1C(=O)[C@@H](NC(C)=O)[C@@H](C)O)C(=O)N1CCC[C@H]1C(=O)N[C@@H](CCC(=O)O)C(=O)N[C@@H](CCC(=O)O)C(=O)N[C@@H](Cc1ccc(O)cc1)C(=O)N[C@@H](CC(C)C)C(=O)N[C@@H](CCC(N)=O)C(=O)O [P54, [Thr^45, Arg^47, D-Pro^48]hirudin^45-65]",,72 ± 32
